# Laboratory results reported in US10543132B2, “Absorbent article with blood modifying agent” (UNICHARM CORPORATION, priority 2011, dated 2020).
# Like-named read-outs stand apart in the source and are kept apart here.
# Assay: Water solubility in 100 g of water at 25° C.
# Text: As used herein, the term “solubility” in regard to water solubility includes cases where the sample completely dissolves in deionized water to form a homogeneous mixture, and cases where the sample is completely emulsified. As used herein, “completely” means that no mass of the sample remains in the deionized water.
# [1] = in 100 g of deionized water at 25° C., 24 hours, visual evaluation
substance,measurement,setting,value
Isopropyl Citrate,Water solubility (g),,20< g
Octadecanoic acid (C18) monoester of butylene glycol [COMPOL BS],Water solubility,[1],<0.05 g
Stearyl ether of polypropylene glycol [UNILUBE MS-70K],Water solubility,,<0.05 g
Polyoxybutylenepolyoxypropylene glycol [UNIOL PB700],Water solubility,,<0.05 g
Dodecanoic acid (C12) monoester of butylene glycol [COMPOL BL],Water solubility,[1],<0.05 g
